# Experimental data reported in patent publication US4608365A, “Treatment of neurologic functions” (priority 1984, dated 1986).
# Test: Pharmacokinetics in patient cerebrospinal fluid and plasma
# Settings: with TRH intravenous infusions; normal less than about 600
# Description: In three ALS patients given 25 mg TRH intravenously during 6 minutes, concommitant TRH values were measured in the plasma and serum at 0, 6 and 12 minutes.
substance,measurement,value
histidine-proline diketopiperazine [cyclo-HisPro],cerebrospinal fluid cyclo-HisPro level,"≤ 10,508 pg/ml"
